This test deals with Thyroid hormone receptor beta (Homo sapiens) (UniProt P10828). In words: qHTS for Inhibitors of the Interaction of Thyroid Hormone Receptor and Steroid Receptor Coregulator 2.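 Further: plate controls were bound peptide for no effect and peptide without receptor for full effect; nearly all actives have a fitted effect of over 50% in size.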 Conditions: TRbeta-SRC2 peptide binding, fluorescence polarization, receptor liganded with 1 µM T3. An excerpt:
NIH Molecular Libraries Probe Production Network [MLPCN]
NIH Chemical Genomics Center [NCGC]
Assay Provider: R. Kip Guy, St. Jude Children's Research Hospital
Thyroid receptor (TR) regulates many homeostatic processes including basal metabolism, cardiovascular function, body weight, and lipid trafficking. TR modulators are potential therapeutics for obesity and hyperlipidemias but current thyroid analogs have undesirable side effects, particularly cardiac stimulation. To identify inhibitors that specifically prevent the interaction of TR with the steroid receptor coregulator 2 (SRC2), a fluorescence polarization assay was screened. This assay detects interaction of the ligand-binding domain of human TRb with a Texas Red labeled SRC2 peptide, corresponding to a 20 amino acid region of the nuclear receptor interaction domain (Arnold et al., 2006). Small molecule inhibitors that block the interaction of TR and SRC2 are detected by a decrease in fluorescence polarization.
Arnold, L. A.; Estebanez-Perpina, E.; Togashi, M.; Shelat, A.; Ocasio, C. A.; McReynolds, A. C.; Nguyen, P.; Baxter, J. D.; Fletterick, R. J.; Webb, P.; Guy, R. K. A high-throughput screening method to identify small molecule inhibitors of thyroid hormone receptor coactivator binding. Sci STKE 2006, p 13.
NCGC Assay Protocol Summary:
For screening, 5 uL/well 0.6 uM TRb and 20 nM SRC2 Texas Red in protein buffer (20mM Tris hydrochloride, 100mM NaCl, 10% glycerol, 1mM EDTA, 0.01% NP-40, 1mM DTT, 1uM T3 and 5% DMSO) was dispensed into black solid 1536-well plates (Grenier) using a solenoid-based dispenser. Following transfer of 23 nL compound or DMSO vehicle by a pin tool, the plates were centrifuged 15 s at 1000 RPM and incubated 5 hr at ambient temperature. […] Data were normalized to unbound (all components except TRb) and bound SRC2 Texas Red controls. In this assay, we provide % activity data for each concentration as well as potencies for the active compounds.
Keywords: NIH Roadmap, MLPCN, MLI, MLSMR, qHTS, NCGC, qHTS, thyroid hormone receptor, steroid receptor coactivator, fluorescence polarization
(In general: In qHTS, concentration-response curves come from the screen itself.)

By UniProt entry, the sequences of proteins in these tests, tags left out.
UniProt P10828, whole entry: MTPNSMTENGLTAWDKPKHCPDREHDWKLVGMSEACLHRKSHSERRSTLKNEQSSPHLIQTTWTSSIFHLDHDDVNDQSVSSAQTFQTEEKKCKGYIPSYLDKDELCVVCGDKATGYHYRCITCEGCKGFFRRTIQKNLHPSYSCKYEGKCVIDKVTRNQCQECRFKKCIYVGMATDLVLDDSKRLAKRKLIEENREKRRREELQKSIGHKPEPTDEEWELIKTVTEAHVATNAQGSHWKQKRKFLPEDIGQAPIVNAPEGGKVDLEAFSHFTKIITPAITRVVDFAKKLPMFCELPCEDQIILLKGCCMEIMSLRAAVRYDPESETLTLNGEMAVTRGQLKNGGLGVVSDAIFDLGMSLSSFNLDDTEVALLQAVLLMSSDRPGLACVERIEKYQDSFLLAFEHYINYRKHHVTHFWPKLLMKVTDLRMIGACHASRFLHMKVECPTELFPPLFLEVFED

Consider 2 molecules from PubChem BioAssay AID1469 (National Center for Advancing Translational Sciences (NCATS), 2008).

Where “and” joins values, the source holds several entries; their conditions need not be identical. Identical values can stand only once. Only a part is listed here, and it is no random draw. Calls of active or inactive are those of the source. The call rests on the fitted dose curve; in most records, active means well fitted inhibition curve with a large enough effect; inconclusive means small, poorly fitted or top-dose-only effect, or effect the other way; inactive means flat fitted curve, though single readings scatter.

Take `O=[N+]([O-])C(Cl)(Cl)Cl`: the activity change, negative = inhibition reads like this: (at 106 µM (top of the series)) inactive: 1.22%; (at 201 µM (top of the series)) inactive: 1.18%.
With `CN(CCCl)CCCl`, where the note is “at 106 µM (top of the series)”, the activity change, negative = inhibition was inactive: 8.54% and inactive: 7.74%.
